Results taken from US20170008944A1 (priority 2015, published 2017).

Key:
[1] = test system: female diet-induced obese (DIO) C57BL/6 mice; experiment: Chronic effect on body weight, body fat and food consumption in female DIO mice; type: in vivo; settings: 50 μg/kg bid s.c.; for Overall weight change / Body fat change: mean ± SEM; for Body fat change: NMR; for daily body weight compared to vehicle DIO control mice / day on which significant body weight decrease begins: Example 7, 4 weeks; for day on which significant body weight decrease begins: continuing through end of study
Procedure: (§1) C57BL/6 Harlan mice are housed in groups in a specific pathogen-free barrier facility on a 12 h light/dark cycle with free access to water and standard or high-fat diet. After 16 weeks of prefeeding on high-fat diet, mice are stratified to treatment groups (n=8), so that each group has similar mean body weight. An age-matched group with ad-libitum access to standard chow is included as standard control group. Prior to the start of treatment, mice are subcutaneously (s.c.) injected with vehicle solution and weighed for 3 days to acclimate them to the procedures.
Body weight is recorded daily. Two days before start of treatment and on day 26, total fat mass is measured by nuclear magnetic resonance (NMR).
(§2) Statistical analyses are performed with Everstat 6.0 by repeated measures two-way ANOVA and Dunnetts post-hoc analyses (glucose profile) and 1-way-ANOVA, followed by Dunnetts post-hoc test (body weight, body fat). Differences versus vehicle-treated DIO control mice are considered statistically significant at the p<0.05 level.
Body weight was recorded daily, and body fat content was determined before the start and after 4 weeks of treatment.
Body weight and food consumption were recorded daily.

[2] = Solubility in buffer with m-cresol, UPLC-UV; type: physicochemical; settings: 2.7 mg/ml m-cresol
Procedure: Prior to the solubility and stability measurement of a peptide batch, its purity was determined through UPLC/MS.
Therefore solutions from solid samples were prepared in two different buffer systems with a concentration of 10 mg/mL compound based on the previously determined % purity:
a) Acetate Buffer pH 4.5, 100 mM sodium acetate trihydrate, 2.7 mg/ml m-cresol
b) Phosphate Buffer pH 7.4, 100 mM sodium hydrogen phosphate, 2.7 mg/ml m-cresol
UPLC-UV was performed after 2 hours of gentle agitation from the supernatant, which was obtained after 20 min of centrifugation at 3000 RCF (relative centrifugal acceleration).
The standards are dilutions (by injecting various volumes ranging from 0.2-2 μl) of the DMSO stock solution of the peptide at a concentration of 1.2 mg/mL (based on % purity). The sample also served as starting point (t0) for the stability testing.

[3] = test system: female diet-induced obese (DIO) C57BL/6 mice; experiment: Acute effect on blood glucose in fed female DIO mice; type: in vivo; settings: Example 7; 50 μg/kg s.c.; t=1, 2, 3, 4, 6 and 24 h post dosing
Procedure: as §1
The volume of administration is 5 mL/kg. The animals have access to water and their corresponding diet during the experiment. Blood glucose levels are measured at t=0 h, t=1 h, t=2 h, t=3 h, t=4 h, t=6 h and t=24 h (method: Accu-Check glucometer). Blood sampling is performed by tail incision without anaesthesia.
as §2
At predefined time points, more blood samples were taken to measure blood glucose and generate the blood glucose profile over 24 h.

[4] = acetate buffer with m-cresol, pH 4.5, acetate buffer
[5] = phosphate buffer with m-cresol, pH 7.4, phosphate buffer

Row | Structure (SMILES) | Overall weight change ([1]; 2-week treatment) [g] | Body fat change ([1]; 4-week treatment) [g] | Overall weight change ([1]; 4-week treatment) [g] | daily body weight compared to vehicle DIO control mice [1] | day on which significant body weight decrease begins [1] [days] | solubility at 2 h [2, 4] [µg/mL] | solubility at 2 h [2, 5] [µg/mL] | blood glucose compared to DIO control mice [3]
1 | CCCCCCCCCCCCCCCCCC(=O)N[C@@H](CCC(=O)NCCCC[C@H](NC(=O)[C@H](CCC(N)=O)NC(=O)[C@H](CCCCN)NC(=O)[C@H](CO)NC(=O)[C@H](CC(C)C)NC(=O)[C@H](CC(=O)O)NC(=O)[C@H](CO)NC(=O)[C@@H](NC(=O)[C@H](Cc1ccccc1)NC(=O)[C@@H](NC(=O)CNC(=O)[C@H](CCC(N)=O)NC(=O)C(C)(C)NC(=O)[C@@H](N)Cc1c[nH]cn1)[C@@H](C)O)[C@@H](C)O)C(=O)N[C@@H](CC(=O)O)C(=O)N[C@@H](CCC(=O)O)C(=O)N[C@@H](CCC(N)=O)C(=O)N[C@@H](CCCNC(=N)N)C(=O)N[C@@H](C)C(=O)N[C@@H](CCCCN)C(=O)N[C@@H](CC(C)C)C(=O)N[C@@H](Cc1ccccc1)C(=O)N[C@H](C(=O)N[C@@H](CCC(=O)O)C(=O)N[C@@H](Cc1c[nH]c2ccccc12)C(=O)N[C@@H](CC(C)C)C(=O)NC(C)(C)C(=O)N[C@@H](C)C(=O)NCC(=O)NCC(=O)N1CCC[C@H]1C(=O)N1CCC[C@H]1C(=O)N[C@@H](CO)C(=O)NC(C)(C)C(=O)N[C@@H](CCCCN)C(=O)N1CCC[C@H]1C(=O)N1CCC[C@H]1C(=O)N1CCC[C@H]1C(=O)N[C@@H](CCCCN)C(N)=O)[C@@H](C)CC)C(=O)O [SEQ ID NO: 9, H-Aib-Q-G-T-F-T-S-D-L-S-K-Q-K[gGlu-Stea]-D-E-Q-R-A-K-L-F-I-E-W-L-Aib-A-G-G-P-P-S-Aib-K-P-P-P-K-NH2] | -2.5 ± 0.2 |  |  |  |  |  |  | 
2 | CCCCCCCCCCCCCCCC(=O)N[C@@H](CCC(=O)N[C@@H](CCC(=O)NCCCC[C@H](NC(=O)[C@H](CCC(N)=O)NC(=O)[C@H](CCCCN)NC(=O)[C@H](CO)NC(=O)[C@H](CC(C)C)NC(=O)[C@H](CC(=O)O)NC(=O)[C@H](CO)NC(=O)[C@@H](NC(=O)[C@H](Cc1ccccc1)NC(=O)[C@@H](NC(=O)CNC(=O)[C@H](CCC(N)=O)NC(=O)C(C)(C)NC(=O)[C@@H](N)Cc1c[nH]cn1)[C@@H](C)O)[C@@H](C)O)C(=O)N[C@@H](CC(=O)O)C(=O)N[C@@H](CCC(=O)O)C(=O)N[C@@H](CCC(N)=O)C(=O)N[C@@H](CCCNC(=N)N)C(=O)N[C@@H](C)C(=O)N[C@@H](CCCCN)C(=O)N[C@@H](CC(C)C)C(=O)N[C@@H](Cc1ccccc1)C(=O)N[C@H](C(=O)N[C@@H](CCC(=O)O)C(=O)N[C@@H](Cc1c[nH]c2ccccc12)C(=O)N[C@@H](CC(C)C)C(=O)NC(C)(C)C(=O)N[C@@H](CO)C(=O)NCC(=O)NCC(=O)N1CCC[C@H]1C(=O)N1CCC[C@H]1C(=O)N[C@@H](CO)C(=O)NC(C)(C)C(=O)N[C@@H](CCCCN)C(=O)N1CCC[C@H]1C(=O)N1CCC[C@H]1C(=O)N1CCC[C@H]1C(=O)N[C@@H](CCCCN)C(N)=O)[C@@H](C)CC)C(=O)O)C(=O)O [SEQ ID NO: 15, H-Aib-Q-G-T-F-T-S-D-L-S-K-Q-K[gGlu-gGlu-Palm]-D-E-Q-R-A-K-L-F-I-E-W-L-Aib-S-G-G-P-P-S-Aib-K-P-P-P-K-NH2] | -2.6 ± 0.5 |  |  |  |  |  |  | 
3 | CCCCCCCCCCCCCCCC(=O)N[C@@H](CCC(=O)N[C@@H](CCC(=O)NCCCC[C@H](NC(=O)[C@H](CCC(N)=O)NC(=O)[C@H](CCCCN)NC(=O)[C@H](CO)NC(=O)[C@H](CC(C)C)NC(=O)[C@H](CC(=O)O)NC(=O)[C@H](CO)NC(=O)[C@@H](NC(=O)[C@H](Cc1ccccc1)NC(=O)[C@@H](NC(=O)CNC(=O)[C@H](CCC(N)=O)NC(=O)C(C)(C)NC(=O)[C@@H](N)Cc1c[nH]cn1)[C@@H](C)O)[C@@H](C)O)C(=O)N[C@@H](CC(=O)O)C(=O)N[C@@H](CCC(=O)O)C(=O)N[C@@H](CCC(N)=O)C(=O)N[C@@H](CCCNC(=N)N)C(=O)N[C@@H](C)C(=O)N[C@@H](CCCCN)C(=O)N[C@@H](CC(C)C)C(=O)N[C@@H](Cc1ccccc1)C(=O)N[C@H](C(=O)N[C@@H](CCC(=O)O)C(=O)N[C@@H](Cc1c[nH]c2ccccc12)C(=O)N[C@@H](CC(C)C)C(=O)NC(C)(C)C(=O)N[C@@H](C)C(=O)NCC(=O)NCC(=O)N1CCC[C@H]1C(=O)N1CCC[C@H]1C(=O)N[C@@H](CO)C(=O)NC(C)(C)C(=O)N[C@@H](CCCCN)C(=O)N1CCC[C@H]1C(=O)N1CCC[C@H]1C(=O)N1CCC[C@H]1C(=O)N[C@@H](CCCCN)C(N)=O)[C@@H](C)CC)C(=O)O)C(=O)O [SEQ ID NO: 7, H-Aib-Q-G-T-F-T-S-D-L-S-K-Q-K[gGlu-gGlu-Palm]-D-E-Q-R-A-K-L-F-I-E-W-L-Aib-A-G-G-P-P-S-Aib-K-P-P-P-K-NH2] |  | -3.83 ± 1.38 | -8.45 ± 3.2 | reduced body weight significantly | 5 | > 7000 | > 7000 | significant decrease in blood glucose
4 | CCCCCCCCCCCCCCCC(=O)N[C@@H](CCC(=O)N[C@@H](CCC(=O)NCCCC[C@H](NC(=O)[C@H](CCC(N)=O)NC(=O)[C@H](CCCCN)NC(=O)[C@H](CO)NC(=O)[C@H](CC(C)C)NC(=O)[C@H](CC(=O)O)NC(=O)[C@H](CO)NC(=O)[C@@H](NC(=O)[C@H](Cc1ccccc1)NC(=O)[C@@H](NC(=O)CNC(=O)[C@H](CCC(N)=O)NC(=O)C(C)(C)NC(=O)[C@@H](N)Cc1c[nH]cn1)[C@@H](C)O)[C@@H](C)O)C(=O)N[C@@H](CC(=O)O)C(=O)N[C@@H](CCC(=O)O)C(=O)N[C@@H](CCC(N)=O)C(=O)N[C@@H](CCCNC(=N)N)C(=O)N[C@@H](C)C(=O)N[C@@H](CCCCN)C(=O)N[C@@H](CC(C)C)C(=O)N[C@@H](Cc1ccccc1)C(=O)N[C@H](C(=O)N[C@@H](CCC(=O)O)C(=O)N[C@@H](Cc1c[nH]c2ccccc12)C(=O)N[C@@H](CC(C)C)C(=O)NC(C)(C)C(=O)N[C@@H](CCCCN)C(=O)NCC(=O)NCC(=O)N1CCC[C@H]1C(=O)N1CCC[C@H]1C(=O)N[C@@H](CO)C(=O)NC(C)(C)C(=O)N[C@@H](CCCCN)C(=O)N1CCC[C@H]1C(=O)N1CCC[C@H]1C(=O)N1CCC[C@H]1C(=O)N[C@@H](CCCCN)C(N)=O)[C@@H](C)CC)C(=O)O)C(=O)O [SEQ ID NO: 8, H-Aib-Q-G-T-F-T-S-D-L-S-K-Q-K[gGlu-gGlu-Palm]-D-E-Q-R-A-K-L-F-I-E-W-L-Aib-K-G-G-P-P-S-Aib-K-P-P-P-K-NH2] | -1.66 ± 0.5 |  |  |  |  | > 7000 | > 7000 | 
5 | CCCCCCCCCCCCCCCC(=O)N[C@@H](CCC(=O)N[C@@H](CCC(=O)NCCCC[C@H](NC(=O)[C@H](CCC(N)=O)NC(=O)[C@H](CCCCN)NC(=O)[C@H](CO)NC(=O)[C@H](CC(C)C)NC(=O)[C@H](CC(=O)O)NC(=O)[C@H](CO)NC(=O)[C@@H](NC(=O)[C@H](Cc1ccccc1)NC(=O)[C@@H](NC(=O)CNC(=O)[C@H](CCC(N)=O)NC(=O)C(C)(C)NC(=O)[C@@H](N)Cc1c[nH]cn1)[C@@H](C)O)[C@@H](C)O)C(=O)N[C@@H](CC(=O)O)C(=O)N[C@@H](CCC(=O)O)C(=O)N[C@@H](CCC(N)=O)C(=O)N[C@@H](CCCNC(=N)N)C(=O)N[C@@H](C)C(=O)N[C@@H](CCCCN)C(=O)N[C@@H](CC(C)C)C(=O)N[C@@H](Cc1ccccc1)C(=O)N[C@H](C(=O)N[C@@H](CCC(=O)O)C(=O)N[C@@H](Cc1c[nH]c2ccccc12)C(=O)N[C@@H](CC(C)C)C(=O)NC(C)(C)C(=O)N[C@@H](C)C(=O)N[C@H](C)C(=O)NCC(=O)N1CCC[C@H]1C(=O)N1CCC[C@H]1C(=O)N[C@@H](CO)C(=O)NC(C)(C)C(=O)N[C@@H](CCCCN)C(=O)N1CCC[C@H]1C(=O)N1CCC[C@H]1C(=O)N1CCC[C@H]1C(=O)N[C@@H](CCCCN)C(N)=O)[C@@H](C)CC)C(=O)O)C(=O)O [SEQ ID NO: 6, H-Aib-Q-G-T-F-T-S-D-L-S-K-Q-K[gGlu-gGlu-Palm]-D-E-Q-R-A-K-L-F-I-E-W-L-Aib-A-dAla-G-P-P-S-Aib-K-P-P-P-K-NH2] |  | -4.44 ± 0.47 | -11.71 ± 1.45 | statistically significant decrease | 7 | > 7000 |  | significant decrease in blood glucose
